Results from patent US11337988B2, “Use of ouabain antagonists to inhibit viral infection” (priority 2018, dated 2022).

How the values were obtained:
RSV-GFP [1] = assay: RSV-GFP infection of A549 cells, GFP intensity of total well by ELISA reader; conditions: A549 pre-treated overnight, 25 nM ouabain or 20 μM PST2238 present throughout, RSV-GFP MOI=1 PFU/cell, 17 h p.i.
RSV-GFP [2] = assay: Time of addition experiment, RSV-GFP in A549 cells, GFP by flow cytometry; conditions: A549, RSV-GFP MOI=3 PFU/cell, 25 nM ouabain or 20 μM PST2238, analyzed 24 h p.i.
ATP1A1 = ATP1A1 (Homo sapiens, UniProt P05023); assay: Immunofluorescence microscopy of ATP1A1 expression and localization in uninfected A549 cells; conditions: 24 h treatment, 25 nM ouabain or 20 μM PST2238

Row | Structure (SMILES) | reduction of viral GFP expression compared to mock-treated cells (RSV-GFP [1]) [%] | inhibition of infection, inhibitor added at 10 h p.i. (RSV-GFP [2]) | ATP1A1 level, expression and localization (ATP1A1)
1 | C[C@]12CC[C@H](O)C[C@H]1CC[C@@H]1[C@@H]2CC[C@]2(C)[C@@](O)(c3ccoc3)CC[C@]12O [PST2238, (3β,5β,14β)-21,23-Epoxy-24-norchola-20,22-diene-3,14,17-triol] | 89 | almost completely lost | no discernible effect
2 | C[C@@H]1O[C@@H](O[C@H]2C[C@@H](O)[C@]3(CO)[C@@H]4[C@@H](CC[C@]3(O)C2)[C@@]2(O)CCC(C3=CC(=O)OC3)[C@@]2(C)C[C@@H]4O)[C@H](O)[C@H](O)[C@H]1O (stereo partly drawn) [ouabain, (1β,3β,5β,11α)-3-[(6-Deoxy-α-L-mannopyranosyl)oxy]-1,5,11,14,19-pentahydroxycard-20(22)-enolide] | 96 | almost completely lost | greatly reduced
